Measured values taken from patent US8816053B2 (ZymoGenetics, Inc., priority 2004, dated 2014).

Key:
EMCV = EMCV antiviral assay (MTT dye uptake) in HepG2 cells; type: cell-based, encephalomyocarditis virus; settings: cytokine 24 hours prior to EMCV, OD570 dye-uptake
[1] = tested on: human marrow mononuclear cells; experiment: Bone marrow expansion assay (Alamar Blue); type: cell-based; settings: all conditions tested

Substance	EC50 (EMCV)	bone marrow expansion [1]
IFN-β: interferon beta (PBL Biomedical)	0.46 ng/mL	
HuIFN-a2a: human interferon alpha-2a	0.57 ng/mL	significant inhibition
